## Binding of CDR-mutated scFvs to a peptide of the spike HR2 region

Source: Li et al. 2023 (doi:10.1038/s41467-023-39022-2), MIT Lincoln Laboratory and A-Alpha Bio; data file from the FLAb repository.

Antigen: PDVDLGDISGINAS, a 14-residue peptide of the SARS-CoV-2 spike HR2 region.

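These sequences belong to a second round, designed from the earlier measurements on random variants of the parent. Group labels follow the data file (En: ensemble of fine-tuned language models; GP: Gaussian process model; HC: hill climbing; Gen: genetic algorithm; Gibbs: Gibbs sampling; a sequence that several methods proposed may carry one label only). AlphaSeq pools MATa yeast showing the antibodies with MATalpha yeast showing the peptide. Pairs that bind mate more often; barcode pairs of the diploids are counted by sequencing. Each replicate has its own calibration line, from reference interactions of the BCL2 family. There are six technical replicates.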

The variants keep the heavy chain, the linker and the frameworks of Ab-14 (scFv order VH, the linker GGGGSGGGGSGGGGS, VL).
VH: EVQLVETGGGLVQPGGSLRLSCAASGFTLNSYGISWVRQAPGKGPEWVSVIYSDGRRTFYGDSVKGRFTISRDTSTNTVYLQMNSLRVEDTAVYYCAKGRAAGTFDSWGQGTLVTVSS
VL: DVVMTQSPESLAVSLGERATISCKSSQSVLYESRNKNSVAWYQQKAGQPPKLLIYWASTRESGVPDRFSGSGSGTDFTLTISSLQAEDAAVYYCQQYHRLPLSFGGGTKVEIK

Each variant is given by its three light chain CDRs, as the data file delimits them; those of the parent are KSSQSVLYESRNKNSVA, WASTRES, QQYHRLPLS. This list holds designs with more than six substitutions. The Kd shown is the geometric mean over detected replicates; a lower Kd is a better binder. "no signal" means that the variant was in the library but no mating with the target was seen in any replicate; the authors take this as a sign of poor binding, and no number exists. Three control strains display no target. For all light chain designs, 4% of the pairings with them gave a signal, with a median of 430 nM and one signal in twenty below 38 nM, so weak values seen in few replicates may be background. In the paper, a design with two or fewer of six values counts as a poor binder. Of ten entries with the parent sequence, four were seen in most replicates (averages 2.2 nM to 240 nM), three in one and three in none, so single entries are noisy. Values of this round are not directly comparable with the first-round values of the same sequences.

Variant HVEHASLLSNATMNSVA | NGACLAD | QQYFRLPLA [En_Gibbs] gave 6.0 nM (6 of 6 replicates). For KFVMSWGYESRNKNAVA | HASQRCD | QQYHRLPLS [GP_Gibbs], the assay gave 3.5 nM (6 of 6 replicates). Variant SMSWAHFNPDNWKNSIA | DATHVAY | QQYSRLPIT [En_Gibbs] gave 1.2 nM (6 of 6 replicates). For KLHAYTQGFKRADASIA | EISYRAI | QQYGRLPLS [En_Gibbs], the assay gave 150 nM (4 of 6 replicates). Variant KLSQSKGGESRNPNSVA | NASTRER | QQYHRLPLS [GP_Gibbs] showed 1.2 nM (6 of 6 replicates).

For MLSGVLHMLGAKKNSIA | DLVNRAN | QQYHRLPLA [En_Gen], the assay gave 18 nM (6 of 6 replicates). Variant KLSSHEQHGTAQNSAMA | NAQVSTQ | QQYSHLPLS [En_Gibbs] showed 3.3 nM (6 of 6 replicates). Variant KWSCSQLYDSQNKNSVA | NASTRMM | QQYHRLPLS [GP_Gibbs] gave 680 pM (6 of 6 replicates). Variant KLGASTRFESSNKASIA | DNSTRES | QQYHRLPLS [En_HC] gave 4.1 nM (6 of 6 replicates). Variant KLSQLFYKESKQKNNVA | EMTTRGS | QQYDRLPLS [En_HC] gave 1.5 nM (6 of 6 replicates).

Variant LMNERMMMGENQQHNIA | NAATLVK | QQYHNLPLG [En_Gibbs] showed 9.9 nM (6 of 6 replicates). With MISDLTMYGSRNVNSVA | DLSTRGS | QQYDRLPLS [En_HC] the result was 130 nM (6 of 6 replicates). Variant RLDFQDLMWQYDANNIA | GATLSIE | QQYGRLPLT [En_Gibbs] showed no signal (0 of 6 replicates). Variant HISIKLPGNWKMMDSVA | HSELRAE | QQYDRLPLM [En_Gibbs] showed 6.4 nM (6 of 6 replicates). Variant NIRGVEFESAMMGNAVA | DMSAVMA | QQYFRLPLH [En_Gibbs] showed 19 nM (6 of 6 replicates).

For RMSQSVLQEERNDNSVA | SASTRCS | QQYHRLPLS [GP_Gibbs], the assay gave 5.9 nM (6 of 6 replicates). With IVSQLMMWGMVAKNSIA | EAVTRLN | QQYDRLPLI [En_Gen] the result was no signal (0 of 6 replicates). Variant KMSVSLQQGIYRADSIA | STDIRVL | QQYYHLPLA [En_Gibbs] gave 12 nM (6 of 6 replicates). Variant KITQLVMETSKNRNNVA | EVSTVPV | QQYHRLPLS [En_HC] showed 240 nM (4 of 6 replicates). For IVTEAQNDNSLYTNNIA | EGENTLA | QQYFRLPLM [En_Gibbs], the assay gave 8.8 nM (6 of 6 replicates).

Variant HISMMVGTKGGARNSVA | NEETRYD | QQYHRLPLS [En_HC] gave 5.3 nM (6 of 6 replicates). With TISQMFLGESRNRNSVA | QASTRNS | QSYDRLPLS [En_HC] the result was 3.8 nM (6 of 6 replicates). For KVSEFMRGLMMRTDSIA | DNVTRNN | QQYDRLPLS [En_Gen], the assay gave 1.3 µM (3 of 6 replicates). For HMSMLTMMGMKQRNSVA | QMTMREN | QQYDRLPLM [En_Gen], the assay gave 8.3 nM (6 of 6 replicates). For KVSMSWMQLERNKNSVA | QASQREQ | QQYHRLPLS [GP_Gibbs], the assay gave 650 pM (6 of 6 replicates).

Variant MISNVMNTLTRVGNNVA | DLSERED | QQYFRLPLS [En_Gen] gave 32 nM (6 of 6 replicates). For KLGQSVAMTSRNKNNVA | DLNERER | QQYHRLPLS [En_HC], the assay gave 2.0 nM (6 of 6 replicates). Variant KSEMEVYYGDRNKNSVA | QASTRES | QQYHRLPLS [GP_Gibbs] showed 450 pM (6 of 6 replicates). Variant KLDSAEQHGTNQKSAMA | SASVSTQ | QQYSRLPLS [En_Gibbs] gave 7.0 nM (6 of 6 replicates). Variant KVHQSQLYESRQINSVA | NASQRCS | QQYHRLPLS [GP_Gibbs] gave 1.6 nM (6 of 6 replicates).

Variant KLSATYRYESQNKNSIA | EMTTREQ | QCYHRLPLS [En_HC] showed 690 pM (6 of 6 replicates). Variant MLSQMWGVGSKVSNSVA | QASMRFN | QQYDRLPLI [En_Gen] showed 35 nM (6 of 6 replicates). With KLSIFSQVESINKSNVA | EMVTRES | QQYDRLPLS [En_HC] the result was 1.4 µM (6 of 6 replicates).

The closing 3 entries, repeated:

CDR-L1	CDR-L2	CDR-L3	group	Kd (apparent)	seen in
KLSATYRYESQNKNSIA	EMTTREQ	QCYHRLPLS	En_HC	690 pM	6 of 6
MLSQMWGVGSKVSNSVA	QASMRFN	QQYDRLPLI	En_Gen	35 nM	6 of 6
KLSIFSQVESINKSNVA	EMVTRES	QQYDRLPLS	En_HC	1.4 µM	6 of 6